Experimental data taken from article PMC10803289, “Transport and inhibition mechanism of the human SGLT2–MAP17 glucose transporter” (Nature Structural & Molecular Biology, 2023).
Read-outs that look alike come from different tables or passages of the source.

Legend:
hSGLT2 F453A = biological target: T1, hSGLT2 F453A (Homo sapiens, UniProt P31639, F453A); assay: α-MG uptake in HEK293 cells, F453A mutant; format: cell-based; parameters: expressed in transfected cells
T1 sequence (P31639 1-672 F453A): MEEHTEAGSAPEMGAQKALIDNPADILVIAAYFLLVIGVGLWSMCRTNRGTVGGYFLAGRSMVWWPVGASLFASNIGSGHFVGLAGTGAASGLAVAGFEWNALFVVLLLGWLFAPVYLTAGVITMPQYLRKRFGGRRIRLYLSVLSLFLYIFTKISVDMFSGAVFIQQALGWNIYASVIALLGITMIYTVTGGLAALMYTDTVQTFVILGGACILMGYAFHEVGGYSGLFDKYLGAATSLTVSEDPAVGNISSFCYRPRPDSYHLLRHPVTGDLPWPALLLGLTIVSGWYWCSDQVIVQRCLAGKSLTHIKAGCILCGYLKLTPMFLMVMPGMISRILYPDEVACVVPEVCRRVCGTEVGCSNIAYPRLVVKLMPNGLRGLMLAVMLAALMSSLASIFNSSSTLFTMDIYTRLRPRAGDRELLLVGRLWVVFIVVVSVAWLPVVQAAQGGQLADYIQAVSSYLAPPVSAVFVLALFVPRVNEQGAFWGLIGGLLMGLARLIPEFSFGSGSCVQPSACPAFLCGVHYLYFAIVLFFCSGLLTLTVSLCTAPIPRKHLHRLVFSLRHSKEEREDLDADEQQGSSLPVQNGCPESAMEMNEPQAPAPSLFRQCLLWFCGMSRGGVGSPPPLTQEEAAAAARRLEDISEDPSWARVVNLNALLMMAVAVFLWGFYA
T1 sequence (Q13113 1-114 partner): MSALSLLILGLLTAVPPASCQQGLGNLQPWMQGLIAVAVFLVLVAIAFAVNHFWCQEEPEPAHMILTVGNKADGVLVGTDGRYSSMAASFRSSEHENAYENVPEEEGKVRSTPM
Description: hSGLT2 complementary DNA and human MAP17 cDNA were synthesized and codon-optimized for expression in human cell lines. Both cDNAs were cloned into the pcDNA3.4 vector. The hSGLT2 sequence was fused with an N-terminal signal sequence from human trypsinogen 1, a His10 tag, and sfGFP, followed by a human rhinovirus 3C protease (HRV3C protease) recognition site. Point mutations were introduced into this construct using site-directed mutagenesis. These plasmids were utilized for all experimental procedures conducted in this study. […]
Cell lysates were deproteinized by adding acetonitrile containing candesartan as the internal standard. The α-MG concentration was quantified via liquid chromatography–tandem mass spectrometry (LC–MS/MS) using the internal standard method.
Cellular protein content was determined using a bicinchoninic acid protein assay kit (Thermo Fisher Scientific). The uptake of α-MG was expressed as the ratio of concentration in the cells (in pmol per mg protein) to concentration in the medium (in pmol μl^−1); this is known as the cell-to-medium ratio (in μl per mg protein).
In the inhibition study, the cell-to-medium ratio of cells transfected with the empty vector was used as the background. The specific α-MG uptake was calculated by subtracting this background from the total cell-to-medium ratio and normalized to the uptake achieved without the inhibitor. […]

hSGLT2 S74A = biological target: T2, hSGLT2 S74A (Homo sapiens, UniProt P31639, S74A); format: binding; conditions: for Binding Mean: Eadie–Hofstee, S74A
T2 construct: expressed in transfected cells; host or cells: Expi293 cells, crude membrane fraction
Description: hSGLT2 complementary DNA and human MAP17 cDNA were synthesized and codon-optimized for expression in human cell lines. Both cDNAs were cloned into the pcDNA3.4 vector. The hSGLT2 sequence was fused with an N-terminal signal sequence from human trypsinogen 1, a His10 tag, and sfGFP, followed by a human rhinovirus 3C protease (HRV3C protease) recognition site. Point mutations were introduced into this construct using site-directed mutagenesis. These plasmids were utilized for all experimental procedures conducted in this study.
To examine the inhibition of binding to the crude membrane, mammalian Expi293 cells were co-transfected with the hMAP17 and hSGLT2 plasmids, as described. The cells were collected and disrupted by sonication in a hypotonic buffer (50 mM HEPES–NaOH (pH 7.5), 10 mM KCl and protease inhibitor cocktail) or Na^+-free hypotonic buffer (50 mM Tris–HCl (pH 7.5), 10 mM KCl and protease inhibitor cocktail). The cell debris were removed by centrifugation (2,000g, 5 min, 4 °C). The membrane fraction was collected by ultracentrifugation (112,000g, 30 min, 4 °C) and stored at −80 °C before use. The crude membrane (250 μg per sample) was incubated with SGLT2 inhibitor in an assay buffer (100 mM NaCl and 10 mM HEPES/Tris, pH 7.4) or Na^+-free assay buffer (100 mM choline chloride and 10 mM HEPES/Tris, pH 7.4) at room temperature for 2 h. Reactions were terminated by filtration through a GF/C filter plate (Corning) presoaked in assay buffer containing 0.1% bovine serum albumin. The sample in the filter plate was washed three times with the assay buffer and eluted with acetonitrile: water (80:20, v/v). The extract solution from the filter plate was diluted with water containing candesartan as an internal standard, and the SGLT2 inhibitor concentration was quantified via LC–MS/MS.
Nonspecific binding was measured using the crude membrane of nontransfected Expi293 cells. Specific binding was calculated by subtracting nonspecific binding from the binding of hSGLT2-expressing cells. Specific binding was normalized to hSGLT2 protein expression levels, measured via FSEC. The equilibrium dissociation constant (Kd) and maximum number of binding sites (Bmax) were calculated via nonlinear regression in GraphPad Prism 8.4.3. The specific binding of the hSGLT2 mutants was normalized to the Bmax of WT hSGLT2.
The concentrations of the extract solution from the filter plate and of the cell lysate were quantified using a tandem mass spectrometry QTRAP6500 System (SCIEX) coupled with an ACQUITY UPLC system (Waters) using the internal standard method. Mobile phases A and B used 10 mM of ammonium bicarbonate and acetonitrile, respectively.

O=C(CCc1ccc(O)cc1)c1c(O)cc(O)cc1O[C@@H]1O[C@H](CO)[C@@H](O)[C@H](O)[C@H]1O [Phlorizin]
inhibition of α-MG uptake (in words) (hSGLT2 F453A): greatly impaired | Binding Mean (hSGLT2 S74A; phlorizin 25 nM (inferred)): 1.4408 | Binding Mean (hSGLT2 S74A; phlorizin 50 nM (inferred)): 2.1250 | Binding Mean (hSGLT2 S74A; phlorizin 100 nM (inferred)): 2.9467 | Binding Mean (hSGLT2 S74A; phlorizin 200 nM (inferred)): 3.4414 | Binding Mean (hSGLT2 S74A; phlorizin 300 nM (inferred)): 3.9550 | Binding Mean (hSGLT2 S74A; phlorizin 500 nM (inferred)): 4.6710 | Binding Mean (hSGLT2 S74A; phlorizin 1000 nM (inferred)): 7.1027 | Binding Mean (hSGLT2 S74A; phlorizin 3000 nM (inferred)): 6.1914 | Binding Mean (hSGLT2 S74A; phlorizin 5000 nM (inferred)): 8.4336 | low-affinity binding phase (hSGLT2 S74A; S74A mutant): lost
